“And” between values parts separate entries of the source, which are not always exact repeats. Equal entries are not always repeated.
Assays:
RGC [1] = experiment: Optic neuritis model: RGC survival (Fluorgold backfilled wholemounts); format: in vivo, mice; settings: 21 days after induction
Method: (§1) Induction of optic neuritis. […] Animals were intraperitoneally injected with 150 ng Bordetella pertussis toxin on day 0 and 2. Animals were monitored daily and assessed for the development of EAE. At the end of the experiment, animals were then killed by CO2 overdose.
(§2) Assessment of RGC survival.

[2] = tested on: T8 dorsal column (DC) crush model of spinal cord injury; experiment: DC crush injury model: electrophysiology (compound action potentials); format: in vivo, rat; settings: 6 weeks after DC injury; for negative CAP amplitudes: different stimulation intensities
Method: (§3) DC crush injury model. Rats were injected subcutaneously with 0.05 ml Buprenorphine to provide analgesia prior to surgery and anaesthetised using 5% of Isoflurane in 1.8 ml/l of O2 with body temperature and heart rate monitored throughout surgery.
(§4) Chk2 inhibition studies in the DC crush injury model. […] Chk1i (LY2603618) was used at equimolar concentrations for each experiment. Rats were killed in a rising concentration of CO2 at either 28 d for immunohistochemistry and western blot analyses or 6 weeks for electrophysiology and functional tests.
Electrophysiology. […] Briefly, with the experimenter masked to the treatment conditions, silver wire electrodes applied single-current pulses (0.05 ms) through a stimulus isolation unit in increments (0.2, 0.3, 0.6, 0.8, and 1.2 mA) at L1-L2 and compound action potentials (CAP) were recorded at C4-C5 along the surface of the midline spinal cord. Spike 2 software was then used to calculate CAP amplitudes between the negative deflection after the stimulus artifact and the next peak of the wave. CAP area was calculated by rectifying the negative CAP component (full-wave rectification) and measuring its area. At the different stimulation intensities. […] Representative CAP traces are processed output data from Spike 2 software.

pChk2 = settings: DC injury, dosing every 24 hrs, pilot dose finding 1-10 μg
Method: as §3, §4
Sham treated animals (partial laminectomy but no DC injury) were also included as additional controls. At 4 weeks after DC injury and treatment, ipsilateral L4/L5 DRG pairs were harvested, total RNA extracted using Trizol reagent as described above and knock down of Chk1 and Chk2 mRNA knockdown using quantitative qRT-PCR, as described above. Contralateral L4/L5 DRG pairs were treated the same as above and used as controls. […] This included western blot to determine pChk1 and pChk2 levels after shChk2 treatment. […]
(§5) Protein extraction and western blot analysis. […] For densitometry, western blots were scanned into Adobe Photoshop (Adobe Systems Inc, San Jose, Calif., USA) and analysed using the built-in-macros for gel analysis in ImageJ (NIH, USA, http://imagej.nih.clov/ij).

[3] = tested on: T8 dorsal column (DC) crush model of spinal cord injury; experiment: DC crush injury model: tape sensing and removal test (sensory function); format: in vivo, rat
Method: as §3, §4
Functional tests. […] Experiments were performed by 2 observers (treatment conditions were masked) in the same order, the same time of day and each test performed for 3 individual trials.

[4] = tested on: retinal nerve fibre layer; experiment: Optic neuritis model: RNFL thickness by OCT; format: in vivo, mice; settings: day 21
Method: as §1
Measurement of RNFL thinning using optical coherence tomography (OCT). […] Examinations were recorded in both right (oculus dextrus, OD) and left eyes (oculus sinister, OS) of each animal at day 0 and day 21 after immunisation. […] A RNFL single exam using the automatic real time (ART) mode (allows averaging of 100 recordings) was produced for each mouse eye, which automatically measured RNFL thickness (μm) in a 30° circle surrounding the optic nerve head.

RGC [5] = experiment: Glaucoma model: RGC survival in retinal wholemounts; format: in vivo, rat; settings: 30 days after induction of glaucoma
Method: Induction of glaucoma. […] At day zero, a self-sealing incision was made though the cornea into the anterior chamber enabling twice weekly intracameral injections of 3.5 μl of TGFβ2 (5 ng/μl) using glass micropipettes for 30 days. Vehicle, comprising saline, was injected in control groups. Intraocular pressure was measured using an iCare Tonolab rebound tonometer (Icare, Helsinki, Finland).
as §2

pChk2^T68 and pChk2^T383 = settings: western blot and densitometry
Method: Rat DRGN and retinal cultures. […] Cells were cultured for 4 days in a humidified chamber at 37° C. and 5% CO2 before being subjected to quantitative RT-PCR or immunocytochemistry, as described below.
as §5

NC(=O)c1ccc2[nH]c(-c3ccc(Oc4ccc(Cl)cc4)cc3)nc2c1 [BML-277]
RGC survival in optic neuritis (RGC [1]): protected from death | CAP area at different stimulation intensities [2]: improved significantly | negative CAP amplitudes [2]: restored | amount required to optimally reduce pChk2 levels by intrathecal delivery (pChk2): 3 μg and 5 μg | time after treatment at which mean tape sensing/removal times are restored to normal [3]: 4 weeks | RNFL thickness in optic neuritis [4]: preserved | RGC survival in glaucoma (RGC [5]): protect against RGC death

COc1cc2nc(-c3cc(F)ccc3O)nc(N[C@@H]3CNC[C@H]3C(C)(C)O)c2cc1OC [CCT241533]
Chk2 phosphorylation (pChk2^T68, pChk2^T383) in DRGN cultures (pChk2^T68 and pChk2^T383): suppressed Chk2 phosphorylation

COc1cccc(OCCCN)c1-c1cc(Nc2cnc(C#N)cn2)n[nH]1 [Prexasertib]
RGC survival in optic neuritis (RGC [1]): protected from death | CAP area at different stimulation intensities [2]: improved significantly | negative CAP amplitudes [2]: restored | amount required to optimally reduce pChk2 levels by intrathecal delivery (pChk2): 3 μg | time after treatment at which mean tape sensing/removal times are restored to normal [3]: 3 weeks | RNFL thickness in optic neuritis [4]: preserved | RGC survival in glaucoma (RGC [5]): protect against RGC death

From US20230390283A1, “USES OF CHK2 INHIBITORS” (The University of Birmingham, priority 2020, published 2023)
